Measured values as given in patent US11571398B1, “Compositions comprising ephedrine or an ephedrine salt and methods of making and using same” (Nexus Pharmaceuticals, Inc., priority 2019, dated 2023).

Settings: 2.5 ppb = lowest calibration concentration; for ICP-MS Results (ppb) Glass vials (2% HNO3): glass vials extracted in 2% HNO3, 60° C.; for ICP-MS Results (ppb) Glass vials (2% HNO3) / ICP-MS Results (ppb) Stoppers (2% HNO3): ~24 h; for ICP-MS Results (ppb) Stoppers (2% HNO3): stoppers extracted in 2% HNO3, 60° C.; for ICP-MS Results (ppb) Stoppers (Reflux pH 3.4): refluxed aqueous solution pH 3.4

Substance	ICP-MS Results (ppb) Glass vials (2% HNO3)	ICP-MS Results (ppb) Stoppers (2% HNO3)	ICP-MS Results (ppb) Stoppers (Reflux pH 3.4)
Nickel	<2.5 ppb	<2.5 ppb	62.5 ppb
Mercury	<2.5 ppb	<2.5 ppb	<2.5 ppb
